Assay outcomes from PubChem BioAssay.
Rango dissoc inh – inhibitors of RanGTP-induced Rango-importin beta complex dissociation. AID 540253. O95149+P62826. Potency, µM (doses to about 46.1 µM). Biochemical FRET Rango-importin beta, RanGTP-induced dissociation. 0.071% of 340,000 active; calls by dose curve; also: nearly all actives have a fitted effect of over 45% in size
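Rango (0.1 uM)–importin beta (0.25 uM) complex; RanGTP-RCC1 trigger; 45 min RT; CFP/YFP FRET read.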
ELG1 DNA repair – blocks ELG1-dependent DNA repair in HEK293T cells | HEK293T ELG1-luciferase reporter, luminescence, 16 h; DNA damage induced by 5-fluorouridine | Potency, µM (highest dose often 46.1 µM), usual class: inhibitors | 2.3% of 330,000 active | AID 504467; also: nearly all actives have a fitted effect of over 55% in size
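DMSO vehicle served as the neutral condition. Each well held 2,000 cells given 5-fluorouridine plus compound; after 16 hr at 37 °C/5% CO2, ONE-Glo was added and luciferase measured 30 min later.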
Tb PGK inh – inhibitors of T. brucei phosphoglycerate kinase | P07378 | PGK/GAPDH coupled, Kinase-Glo luminescence, 60 min | Potency, µM (titrated, usually from 57.5 µM), most hits filed as inhibitors | 0.043% of 380,000 active | AID 602233; also: nearly all actives have a fitted effect of over 60% in size
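Recombinant glycosomal PGK reaction used 1,3-bisphosphoglycerate generated in-well by GAPDH (100nM final) in 100mM TEA pH 7.6, 5mM MgCl2, 0.01% Tween-20. After 60 minutes at room temperature, ATP was read by Kinase-Glo Plus luminescence end-point.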
Rango complex inh – prevents formation of the Rango-importin beta complex | Q14974 | Rango CFP/YFP FRET sensor + importin beta, 45 min | Potency, µM (doses to about 92.2 µM) | 0.031% of 340,000 active | AID 540263; calls by dose curve; also: nearly all actives have a fitted effect of over 15% in size
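FRET biosensor Rango (snurportin 1 IBB between N-terminal EYFP and C-terminal Cerulean), 50 nM in PBS/1 mM DTT/0.02% Tween-20/0.1% BSA, preincubated 5 min RT with compound; 0.125 microM importin beta added, 45 min RT, CFP/YFP FRET ratio read.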
Tb PFK block – blocks T. brucei phosphofructokinase; O15648; T. brucei PFK, ADP-Glo luminescence; Potency, µM (doses to about 57.5 µM), most hits filed as inhibitors; 0.17% of 330,000 active; AID 485367; also: nearly all actives have a fitted effect of over 60% in size
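Activity is normalized to no-enzyme wells (full inhibition) and 1.25 nM enzyme wells (no inhibition). Reaction: 0.5 mM F6P, 0.1 mM ATP, 45 min RT, ADP-Glo luminescence; concentration-response curves fitted and classed by quality.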
PKM2 activator – PKM2 (human) enzyme activation; P14618; purified PKM2, Kinase-Glo ATP luminescence, activation; response scale: 0% is enzyme alone, no compound; Potency, µM (doses to about 57.5 µM), actives largely listed as activators; 0.34% of 260,000 active; AID 1631; also: nearly all actives have a fitted effect of over 55% in size
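Purified hPK-M2 (>95%) run at intermediate activity with 0.1 mM ADP and 0.5 mM PEP in 50 mM imidazole pH 7.2, KCl, MgCl2; 1 h room temperature. ATP formed read by Kinase-Glo luminescence; normalized to uninhibited and no-enzyme controls.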
Numbers stand for hits; i = inactive; ? = inconclusive; nt = no result; [ ] = remark or other dose. A selection: hits, their analogues and other compounds. The true share with any hit is near 2.4%. Unless noted, calls follow the shape of the dose curve; as a rule, active = well fitted curve in the direction sought with a large enough effect; inconclusive = small, poorly fitted or top-dose-only effect, or another doubt; inactive = no such curve, though single readings can be large; an effect the other way counts as inactive or inconclusive.

SMILES	Rango dissoc inh	ELG1 DNA repair	Tb PGK inh	Rango complex inh	Tb PFK block	PKM2 activator
COc1cc(S(=O)(=O)N2CCOCC2)ccc1NC(=O)COC(=O)C12CC3CC(CC(C3)C1)C2	i	i	i	i	?	i
CCCc1nc2ccccc2c(C(=O)OCC(=O)Nc2cccc(S(=O)(=O)N3CCOCC3)c2)c1CC	i	25.9µM	i	i	i	i
CCCc1nc2ccccc2c(C(=O)OCC(=O)NC2CC2)c1CC	i	?	i	i	i	nt
O=C(COC(=O)c1n[nH]c2ccccc12)Nc1cccc(S(=O)(=O)N2CCOCC2)c1	i	i	i	i	i	i
CCCc1nc2ccccc2c(C(=O)OCC(=O)Nc2ccc(S(=O)(=O)N3CCOCC3)cc2)c1CC	i	20.6µM	i	i	i	i
O=C(COC(=O)C12CC3CC(CC(Br)(C3)C1)C2)Nc1cccc(S(=O)(=O)N2CCOCC2)c1	i	16.4µM	i	i	i	nt
N#Cc1ccc(C(=O)OCC(=O)Nc2cccc(S(=O)(=O)NC3=NCCC3)c2)cc1	i	i	i	i	i	nt
COc1ccc(NC(=O)Cn2nc(-c3ccccc3)c3cnc4ccc(C)cc4c32)cc1	nt	nt	i	nt	nt	nt
Cc1ccc(F)cc1NC(=O)/C=C/c1ccc(S(=O)(=O)N2CCOCC2)cc1	i	23.1µM	i	i	i	nt
O=C(/C=C/c1cccc(F)c1)Nc1cc(S(=O)(=O)N2CCOCC2)ccc1Cl	i	25.9µM	i	i	i	nt
O=C(/C=C/c1cccc(F)c1)Nc1cc(S(=O)(=O)N2CCOCC2)ccc1N1CCCC1	i	i	i	i	i	i
COc1cccc(-c2nc(C(N)=O)c3c(n2)n(-c2ccc4c(c2)OCO4)c(=O)n3C)c1OC	nt	nt	i	nt	nt	nt
Cc1cc(C)n(-c2cc(N3CCN(C(=O)c4cccc(F)c4)CC3)ccc2[N+](=O)[O-])n1	i	20.6µM	i	i	i	i
COc1ccccc1N1CCN(C(c2cc3ccc(C)cc3[nH]c2=O)c2nnnn2C2CCCC2)CC1 (stereo not drawn)	i	?	i	58µM	i	i
Cc1cc(=O)[nH]c2nnc(SCc3ccccc3F)n12	nt	nt	i	nt	nt	nt
COc1ccc(CCNC(=S)NC(=O)c2ccccc2)cc1C	i	13µM	i	i	i	i
COc1ccc(CCNC(=S)NC(=O)c2ccc(Br)cc2)cc1OC	i	?	i	i	i	i
Cc1ccc(S(=O)(=O)N2C[C@@H]3[C@H]4CC[C@H](C4)[C@@H]3[C@@H](C)[C@H]2c2ccn(Cc3ccccc3)c2)cc1	i	i	i	i	i	nt
COc1ccc(C2C(C#N)=C(N)OC3=C2C(=O)CC(C)(C)C3)c([N+](=O)[O-])c1OC (stereo not drawn)	23.1µM	i	i	?	i	i
Cc1ccccc1-n1c(=O)/c(=C\c2ccco2)s/c1=C(/C#N)C(=O)Nc1ccccc1	?	4.61µM	i	?	i	i
CCOC(=O)/C=c1\s/c(=C(\C#N)C(=O)NC)n(-c2ccccc2)c1=O	i	i	i	i	i	i
CC(C)CNS(=O)(=O)c1ccccc1C(=O)N1CCCCC1	i	?	i	i	i	i
Cc1cccc(C)c1OCC(O)CNS(=O)(=O)c1ccccc1C(=O)N1CCCCC1 (stereo not drawn)	i	16.4µM	i	i	i	i
CC(=O)c1cccc(NC(=O)CN2CCc3cc4c(cc3C2C)OCCCO4)c1 (stereo not drawn)	i	11.6µM	i	i	i	i[0.46 µM]
CC1c2cc3c(cc2CCN1C(=O)c1ccc(Cl)cc1)OCCCO3 (stereo not drawn)	i	23.1µM	i	i	i	nt
Cc1ccc(OCC(=O)NN=C2C3CC4CC(C3)CC2C4)cc1	i	i	i	i	i	nt
CC(C)(C)OC(=O)NCc1ccc(CNC(=O)c2nc[nH]c2C(=O)NCc2ccccc2)cc1	i	?	i	i	i	nt
CN(Cc1ccccc1)C(=O)c1[nH]cnc1C(=O)NCc1ccc(CNC(=O)OC(C)(C)C)cc1	i	?	i	i	i	nt
